We go through 92 molecules from PubChem BioAssay AID1777 (Sanford-Burnham Center for Chemical Genomics, 2009).

The chains behind the UniProt entries cited, without tags or fusion partners. Where a name states a change or a piece, a line headed by the entry shows the natural chain unless it says otherwise.
UniProt P41145: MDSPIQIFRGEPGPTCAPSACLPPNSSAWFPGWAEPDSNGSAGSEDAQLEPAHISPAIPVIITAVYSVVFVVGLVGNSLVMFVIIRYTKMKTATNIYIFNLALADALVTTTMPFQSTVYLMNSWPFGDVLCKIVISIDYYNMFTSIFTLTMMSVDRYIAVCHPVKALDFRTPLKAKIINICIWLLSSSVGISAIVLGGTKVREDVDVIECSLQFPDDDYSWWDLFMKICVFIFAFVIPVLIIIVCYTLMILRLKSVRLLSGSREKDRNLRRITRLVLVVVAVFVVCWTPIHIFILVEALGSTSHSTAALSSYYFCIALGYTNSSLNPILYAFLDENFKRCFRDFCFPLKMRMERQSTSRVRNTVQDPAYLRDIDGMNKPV

This is one part of the list. Entries with a potency or affinity are not part of this list. Active and inactive are the calls of the source. No stated cut-off is given here; in the data, active means activation above about 50% (passing the limit was not always enough); inactive means the rest.

In this assay the target is Kappa-type opioid receptor (Homo sapiens) (UniProt P41145). Briefly: kappa opioid receptor activators – cell-based, luminescence, uHTS, primary screen (AID 1777). The conditions noted are these: KOR beta-arrestin recruitment, at 10 µM, stronger effect = higher value. For orientation: Activated receptors often draw arrestin, which recruitment assays turn into a signal.
Turning to `Cn1c(=O)oc2cc(S(=O)(=O)N3CCCC(C(=O)N4CCn5c4nc4ccccc45)C3)ccc21` (configuration not stated), the activation is inactive: -3.3%.
As for `CC(C)NC(=O)CSc1nc2ccccc2n1CC(=O)N1CCc2ccccc21`, the activation is inactive: 4.7%.
As for `CC(c1ccccc1)N1CCn2c(nc3cc(NC(=O)NC4CCCCC4)ccc32)C1` (configuration not stated), the activation is inactive: -6.8%.
Consider `CC(C)C[C@H](NC(=O)N1CCn2c1nc1ccccc12)C(=O)N[C@@H](C(=O)O)c1ccccc1`, for which the activation is inactive: -4%.
Consider `CN(C)C1(c2nnnn2CCOC(=O)Nc2ccc(Cl)cc2)CCCCC1`, for which the activation was inactive: 0.1%.
Regarding `CC1c2nc3ccccc3n2C(CC(=O)NC2CC2)C(=O)N1Cc1ccccc1` (configuration not stated), the activation is inactive: -6.2%.
`CNC(=O)Cn1c(=O)n(C)c2ccccc21`: the activation is inactive: -1.5%.
Turning to `CCN1C(=O)CC(N2CCC(Nc3ccc(F)cc3)CC2)C1=O` (configuration not stated), the activation was inactive: -1.5%.
In the case of `CCOP(=O)(Nc1ccc(C)cn1)OCC`, the activation was inactive: 3.5%.
As for `CCOc1ccc(N2CCn3c2nc2c3c(=O)n(CCc3ccccc3)c(=O)n2C)cc1`, the activation is inactive: 0.9%.
In the case of `Cc1ccc(-c2nc(N(C)C3CCN(C)CC3)c3ccccc3n2)cc1`, the activation was inactive: -6.5%.
With `Cc1ccc(SCc2nc3ccccc3n2CC(=O)Nc2ccc(Cl)cc2)cc1`, the activation is inactive: 7%.
For the molecule `CCCCNc1nc2ccccc2n1CC(=O)Nc1ccc2c(c1)OCCO2`, the activation is inactive: -0.5%.
Take `CN1CCC2(CC1)Nc1nc(SCc3ccc(Cl)cc3)nn1C1=C2CN(C)CC1`: the activation is inactive: -5.8%.
Take `Cc1ccc2c(c1)C1CN(C)CCC1N2C(=S)Nc1cccnc1` (configuration not stated): the activation was inactive: 1.1%.
For the molecule `FC(F)(F)c1cccc(-n2nnnc2C2(N3CCOCC3)CCCCC2)c1`, the activation was inactive: 0.2%.
With `N#CCC(=O)N/N=C\c1ccc(OC/C=C/c2ccccc2)cc1`, the activation was inactive: -3.8%.
Regarding `CC(C)NC(=O)Cn1c(SCC(=O)N2CCc3ccccc3C2)nc2ccccc21`, the activation is inactive: -5.4%.
On to `Cc1cc(N2C(=O)CC(N3CCC(n4c(=O)[nH]c5ccccc54)CC3)C2=O)no1` (configuration not stated), for which the activation was inactive: 1.9%.
In the case of `Cc1ccc(CNC(=O)CCCCCNC(=O)N2CCn3c2nc2ccccc23)cc1`, the activation was inactive: -6.6%.
In the case of `Brc1cccc(CNc2nc3ccccc3n2CCN2CCOCC2)c1`, the activation is inactive: 1.6%.
Take `S=C(Nc1ccccc1)N1CCn2c(nc3ccccc32)C1`: the activation is inactive: -4%.
Regarding `O=C(Cn1c(CSc2ccccc2)nc2ccccc21)Nc1ccccc1`, the activation was inactive: 3.6%.
For `O=C(NCCn1c(C(F)(F)F)nc2cc(C(F)(F)F)ccc21)[C@H]1CCCN1c1nc(CN2CCCCC2)cs1`, the activation was inactive: -0.4%.
Take `Cc1cc(C)cc(NC(=O)Cn2c(-c3ccccc3Cl)nc3ccccc32)c1`: the activation was inactive: -3.1%.
To `Cn1c(=O)c2ncn(CC(=O)Nc3cc(C(F)(F)F)ccc3N3CCOCC3)c2n(C)c1=O` belongs inactive: 3.8%.
As to `CCCC(=O)Nc1nnc(/C=C/c2ccccc2)s1`, the activation is inactive: -1.1%.
As for `CC(C)(C)C(=O)NC(Sc1ncccn1)C(Cl)(Cl)Cl` (configuration not stated), the activation is inactive: -2.4%.
The result for `Cn1c(=O)c2c(ncn2CC(=O)Nc2nnc(Cc3ccccc3)s2)n(C)c1=O` reads inactive: 3.8%; that for `COc1ccc(OCC(O)Cn2c(=N)n(CCN3CCOCC3)c3ccccc32)cc1` (configuration not stated), inactive: -3.8%; that for `O=C(Cn1c(C(F)(F)F)nc2ccccc21)Nc1ccccc1C(=O)O`, inactive: -1.6%.
With `CN(C)CCn1c(NC(=O)c2ccc(Cl)cc2)nc2ccccc21`, the activation was inactive: 4.7%.
As for `Clc1n[nH]nc1-c1nn[nH][15n]1`, the activation was inactive: -2.4%.
For the molecule `COc1ccc(/C=N/NC(=O)Cn2c(Cc3ccc(OC)c(OC)c3)nc3ccccc32)cc1OC`, the activation was inactive: 3.9%.
To `Cc1ccc(CSc2nc3ccncc3n2CC(=O)Nc2cc(C)cc(C)c2)cc1` belongs inactive: 11.6%; to `NNC(=O)Cn1c(-c2nonc2N)nc2ccccc21`, inactive: -5.5%; to `Cn1c(=O)c2c(nc(CN3CCOCC3)n2CCN2CCOCC2)n(C)c1=O`, inactive: 7.2%.
To `CC1Cc2ccccc2N1C(=O)Cn1cnc2ccccc21` (configuration not stated) belongs inactive: -1.6%.
Consider `O=S(=O)(Nc1ccc2c(c1)nc1n2CCN(Cc2ccccc2)C1)c1ccc(F)cc1`, for which the activation is inactive: 7.2%.
On to `COc1cccc(CNc2nc3ccccc3n2CCN2CCCCC2)c1OC`, for which the activation was inactive: 4%.
To `O=C(OC1CN2CCC1CC2)c1cccc([N+](=O)[O-])c1` (configuration not stated) belongs inactive: -0.1%; to `CCC(C)[C@H](NC(=O)N1CCn2c1nc1ccccc12)C(=O)NCC1CCCO1` (some centres not stated), inactive: -1.6%.
For `CCCCOc1ccccc1NC(=O)Cn1c(-c2nonc2N)nc2ccccc21`, the activation was inactive: -2.2%.
Turning to `CCc1cccc(C)c1N(C(=O)Cn1c(=O)[nH]c2ccccc21)C(C)COC` (configuration not stated), the activation was inactive: -2.1%.
On to `COc1ccc(CCNC(=O)[C@H](CC(C)C)NC(=O)N2CCn3c2nc2ccccc23)cc1OC`, for which the activation was inactive: -8.8%.
As for `O=C1Cn2c(nc3ccccc32)-c2ccccc2N1`, the activation was inactive: 4%.
In the case of `CCC(NC(=O)Cn1cnc2c(=O)n(C)c(=O)n(C)c21)c1ccccc1` (configuration not stated), the activation was inactive: 3.9%.
In the case of `CCN(CC)C(=O)Cn1cnc2c1c(=O)n(C)c(=O)n2C`, the activation is inactive: -3.4%.
For `CC(C)N(C(=O)Cn1c(Cl)nc2ccccc21)C(C)C`, the activation is inactive: -4.5%.
To `CCOC(=O)c1ccc(NC(=O)C(C)(CCl)SC)cc1` (configuration not stated) belongs inactive: 9.8%; to `O=C(Cn1c(-c2cscn2)nc2ccccc21)Nc1cc(F)ccc1F`, inactive: -0.4%.
As to `Cc1ccc2c(c1)C1CN(C)CCC1N2C(=O)COc1ccc(S(=O)(=O)N2CCOCC2)cc1` (configuration not stated), the activation was inactive: 3.9%.
As for `Cc1nc2ccccc2n1CC(=O)N/N=C\c1ccccn1`, the activation was inactive: 7.4%.
Turning to `CC(C)NC(=O)Cn1c(SCC(=O)N2CCCc3ccccc32)nc2ccccc21`, the activation was inactive: 0.4%.
In the case of `Cc1ccc(NC(=O)CCC(=O)N/N=C/C=C/c2ccccc2)cc1`, the activation is inactive: 2%.
`CCc1ccc(NC(=O)Cn2c(SC)nc3ccccc32)cc1`: the activation is inactive: -5.2%.
The result for `CC1CC(C)CN(C(=O)Cn2c(SCC(=O)N3CCc4ccccc4C3)nc3ccccc32)C1` (configuration not stated) reads inactive: -3.6%.
On to `CCC(C)N(CC(C)C)C(=S)SC(NC(C)=O)C(Cl)(Cl)Cl` (configuration not stated), for which the activation is inactive: 3.8%.
Regarding `CCN1C(=O)C2(Nc3ccccc3-c3nc4ccccc4n32)c2cc(OC)ccc21` (configuration not stated), the activation is inactive: -2%.
As for `COc1ccc(N2C(=O)CC(n3cnc4ccccc43)C2=O)cc1` (configuration not stated), the activation was inactive: 1.3%.
To `COc1ccccc1NC(=O)Cn1cnc2c1c(=O)n(C)c(=O)n2C` belongs inactive: 0.4%.
With `Cc1ccc2c(c1)[C@@H]1CN(C)CC[C@@H]1N2C(=O)Nc1cccc(C(F)(F)F)c1`, the activation is inactive: 0.9%.
With `CCOC(=O)c1ccccc1NC(=O)CSc1nc2ccccc2n1CC(=O)N1CCCC1`, the activation was inactive: -6.6%.
Take `Cc1ccc(-c2csc(NC(=O)Cn3cnc4c3c(=O)n(C)c(=O)n4C)n2)cc1C`: the activation is inactive: 6.5%.
To `CSc1nc2ccccc2n1CC(=O)Nc1ccccc1` belongs inactive: -5.9%.
Regarding `Cc1nc2ccccc2n1CCN1CCOCC1`, the activation is inactive: 2.8%.
The result for `O=C(Nc1ccc2c(c1)nc1n2CCN(C2CCCCC2)C1)NC1CCCCC1` reads inactive: 2.8%.
As for `CN1C(=O)C2(Nc3ccccc3-c3nc4ccccc4n32)c2ccccc21` (configuration not stated), the activation was inactive: -1.5%.
Turning to `Cc1ccc2c(c1)C1CN(C)CCC1N2C(=O)Cc1cccs1` (configuration not stated), the activation was inactive: 6%.
For `Cc1ccc(NC(=O)Cn2cnc3ccccc32)cc1C`, the activation was inactive: -1.8%.
On to `CCC(C)[C@H](NC(=O)N1CCn2c1nc1ccccc12)C(=O)NCc1ccccc1` (some centres not stated), for which the activation was inactive: -6.3%.
Consider `O=C(Nc1ccccc1C(F)(F)F)N1CCC(n2c(=O)[nH]c3ccccc32)CC1`, for which the activation is inactive: 5.2%.
For the molecule `CC(C)[C@H](NC(=O)N1CCn2c1nc1ccccc12)C(=O)N[C@H](Cc1ccccc1)C(=O)O`, the activation was inactive: 2.1%.
To `N#CCC(=O)N/N=C\c1cccc(OC/C=C/c2ccccc2)c1` belongs inactive: 5.2%; to `O=C(C1CCN(S(=O)(=O)c2cccc3nsnc23)CC1)N1CCn2c1nc1ccccc12`, inactive: -15.8%.
As for `N=c1n(CCN2CCCCC2)c2ccccc2n1CC(=O)c1cccs1`, the activation was inactive: 2.8%.
As to `Cn1c(=O)c2c(ncn2CC(=O)N/N=C/C=C\c2ccccc2[N+](=O)[O-])n(C)c1=O`, the activation was inactive: 0.1%.
To `CN(C)CCn1c(NCc2ccc3c(c2)OCO3)nc2ccccc21` belongs inactive: 2%; to `COP1(=S)c2c(C)nn(CCC#N)c2N=C(c2ccc(F)cc2)N1C` (configuration not stated), inactive: 1.8%; to `Cc1ccc(C)c(S(=O)(=O)N2CCN(C(=O)Cn3cnc4c3c(=O)n(C)c(=O)n4C)CC2)c1`, inactive: -3.9%.
With `C=CCn1c(=O)c2c(nc3n2CCN3c2cccc(Cl)c2C)n(C)c1=O`, the activation is inactive: -1.1%.
For the molecule `CC(C)NC(=O)Cn1c(SCC(=O)NC2CCCC2)nc2ccccc21`, the activation was inactive: -0.3%.
For `COc1ccc2c(c1)C1(Nc3ccccc3-c3nc4ccccc4n31)C(=O)N2C` (configuration not stated), the activation was inactive: 1.3%.
With `COc1cccc(NC(=O)[C@H](CC(C)C)NC(=O)N2CCn3c2nc2ccccc23)c1`, the activation was inactive: -1.5%.
For the molecule `CC(C)[C@H](NC(=O)N1CCn2c1nc1ccccc12)C(=O)NC1CC1`, the activation was inactive: 0%.
For `CCc1cccc(C)c1N(C(=O)Cn1c(COC)nc2ccccc21)C(C)COC` (configuration not stated), the activation was inactive: -8.2%.
The result for `O=[N+]([O-])c1ccc2c(c1)nc1n2CCN(c2ccccc2)C1` reads inactive: -0.1%; that for `O=C(c1ccccc1)N1CCn2c(nc3ccccc32)C1`, inactive: -0.3%.
Consider `CC(NC(=O)Cn1cnc2c1c(=O)n(C)c(=O)n2C)c1ccccc1` (configuration not stated), for which the activation was inactive: -1.2%.
For the molecule `O=C(Cn1cnc2ccccc21)Nc1ccc(SC(F)F)cc1`, the activation was inactive: -0.5%.
To `O=C(C1CCCN(S(=O)(=O)c2cccnc2)C1)N1CCn2c1nc1ccccc12` (configuration not stated) belongs inactive: 1.2%.
For the molecule `CCC(C(=O)NC1CCCCC1)n1c(SCc2cccc(C)c2)nc2ccncc21` (configuration not stated), the activation was inactive: -0.6%.
